Measurements: patent US10214511B2, “Quinazolines as potassium ion channel inhibitors” (Bristol-Myers Squibb Company, priority 2009, dated 2019)
Read-outs that look alike come from different tables or passages of the source.

The chains behind the UniProt entries cited, without tags or fusion partners. Where a name states a change or a piece, a line headed by the entry shows the natural chain unless it says otherwise.
UniProt Q9NWZ3, whole entry, species assumed: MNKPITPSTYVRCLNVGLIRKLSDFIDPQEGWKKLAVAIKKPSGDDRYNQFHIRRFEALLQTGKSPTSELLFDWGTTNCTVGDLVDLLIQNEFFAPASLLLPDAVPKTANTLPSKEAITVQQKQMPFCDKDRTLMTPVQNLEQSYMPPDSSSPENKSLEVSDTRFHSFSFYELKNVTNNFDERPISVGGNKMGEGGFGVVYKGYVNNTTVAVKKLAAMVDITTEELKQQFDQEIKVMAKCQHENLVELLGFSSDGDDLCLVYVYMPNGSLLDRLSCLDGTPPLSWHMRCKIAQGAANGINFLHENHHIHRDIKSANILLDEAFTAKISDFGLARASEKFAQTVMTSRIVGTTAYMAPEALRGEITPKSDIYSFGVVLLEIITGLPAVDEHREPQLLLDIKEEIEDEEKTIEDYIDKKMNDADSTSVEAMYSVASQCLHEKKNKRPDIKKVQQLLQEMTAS
UniProt P51617, whole entry, species assumed: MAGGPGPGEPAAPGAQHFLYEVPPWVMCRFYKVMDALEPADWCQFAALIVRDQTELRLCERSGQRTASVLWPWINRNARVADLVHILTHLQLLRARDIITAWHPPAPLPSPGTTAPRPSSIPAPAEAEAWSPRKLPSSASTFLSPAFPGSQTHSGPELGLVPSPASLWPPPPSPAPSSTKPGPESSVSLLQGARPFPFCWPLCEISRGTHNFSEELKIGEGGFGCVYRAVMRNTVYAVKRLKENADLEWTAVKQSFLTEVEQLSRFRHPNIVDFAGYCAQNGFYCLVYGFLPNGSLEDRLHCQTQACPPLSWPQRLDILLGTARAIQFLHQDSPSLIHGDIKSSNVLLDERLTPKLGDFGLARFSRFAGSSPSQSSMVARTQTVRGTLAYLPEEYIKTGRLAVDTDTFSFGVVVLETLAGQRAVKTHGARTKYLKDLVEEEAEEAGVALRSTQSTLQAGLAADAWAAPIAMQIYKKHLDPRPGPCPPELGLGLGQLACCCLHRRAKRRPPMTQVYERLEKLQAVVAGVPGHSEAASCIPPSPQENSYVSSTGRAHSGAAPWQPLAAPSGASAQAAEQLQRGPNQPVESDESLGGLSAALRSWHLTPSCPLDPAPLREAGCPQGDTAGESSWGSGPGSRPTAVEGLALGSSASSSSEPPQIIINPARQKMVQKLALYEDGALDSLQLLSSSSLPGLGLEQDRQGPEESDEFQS
UniProt P42680: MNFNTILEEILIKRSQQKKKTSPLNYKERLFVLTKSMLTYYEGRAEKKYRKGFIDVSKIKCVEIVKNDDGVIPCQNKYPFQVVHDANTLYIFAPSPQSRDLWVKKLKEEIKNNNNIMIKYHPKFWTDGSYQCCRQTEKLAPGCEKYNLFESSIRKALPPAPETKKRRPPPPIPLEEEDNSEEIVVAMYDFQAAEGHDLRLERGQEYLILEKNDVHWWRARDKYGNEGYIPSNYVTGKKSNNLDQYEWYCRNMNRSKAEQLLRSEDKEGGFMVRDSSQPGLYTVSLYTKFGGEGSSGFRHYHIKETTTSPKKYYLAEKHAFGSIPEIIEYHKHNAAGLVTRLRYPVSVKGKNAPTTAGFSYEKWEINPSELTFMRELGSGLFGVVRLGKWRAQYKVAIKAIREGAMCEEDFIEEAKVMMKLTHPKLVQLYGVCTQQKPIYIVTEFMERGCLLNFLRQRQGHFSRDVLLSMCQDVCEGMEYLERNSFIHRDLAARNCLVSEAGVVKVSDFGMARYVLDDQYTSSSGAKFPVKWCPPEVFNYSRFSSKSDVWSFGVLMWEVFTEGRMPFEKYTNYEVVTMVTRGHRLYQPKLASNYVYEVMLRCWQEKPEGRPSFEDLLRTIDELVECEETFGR
UniProt P51813, whole entry, species assumed: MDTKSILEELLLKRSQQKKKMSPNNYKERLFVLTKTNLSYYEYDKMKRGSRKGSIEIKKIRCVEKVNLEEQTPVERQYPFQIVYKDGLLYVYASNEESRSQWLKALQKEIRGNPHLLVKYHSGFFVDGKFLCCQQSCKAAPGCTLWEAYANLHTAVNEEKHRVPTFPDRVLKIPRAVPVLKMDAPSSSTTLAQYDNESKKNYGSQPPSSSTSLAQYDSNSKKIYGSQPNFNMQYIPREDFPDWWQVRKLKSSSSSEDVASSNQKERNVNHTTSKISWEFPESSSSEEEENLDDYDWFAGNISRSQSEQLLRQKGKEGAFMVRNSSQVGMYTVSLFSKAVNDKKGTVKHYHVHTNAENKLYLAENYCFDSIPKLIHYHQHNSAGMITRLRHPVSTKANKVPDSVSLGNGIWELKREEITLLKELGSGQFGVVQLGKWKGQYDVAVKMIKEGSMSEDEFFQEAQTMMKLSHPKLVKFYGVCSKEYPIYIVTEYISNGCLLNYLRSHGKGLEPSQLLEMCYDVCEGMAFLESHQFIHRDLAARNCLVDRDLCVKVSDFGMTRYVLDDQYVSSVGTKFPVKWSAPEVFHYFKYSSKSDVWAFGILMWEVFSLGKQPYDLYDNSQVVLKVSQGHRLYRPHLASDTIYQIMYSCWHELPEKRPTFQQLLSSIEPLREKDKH
UniProt Q06187, whole entry, species assumed: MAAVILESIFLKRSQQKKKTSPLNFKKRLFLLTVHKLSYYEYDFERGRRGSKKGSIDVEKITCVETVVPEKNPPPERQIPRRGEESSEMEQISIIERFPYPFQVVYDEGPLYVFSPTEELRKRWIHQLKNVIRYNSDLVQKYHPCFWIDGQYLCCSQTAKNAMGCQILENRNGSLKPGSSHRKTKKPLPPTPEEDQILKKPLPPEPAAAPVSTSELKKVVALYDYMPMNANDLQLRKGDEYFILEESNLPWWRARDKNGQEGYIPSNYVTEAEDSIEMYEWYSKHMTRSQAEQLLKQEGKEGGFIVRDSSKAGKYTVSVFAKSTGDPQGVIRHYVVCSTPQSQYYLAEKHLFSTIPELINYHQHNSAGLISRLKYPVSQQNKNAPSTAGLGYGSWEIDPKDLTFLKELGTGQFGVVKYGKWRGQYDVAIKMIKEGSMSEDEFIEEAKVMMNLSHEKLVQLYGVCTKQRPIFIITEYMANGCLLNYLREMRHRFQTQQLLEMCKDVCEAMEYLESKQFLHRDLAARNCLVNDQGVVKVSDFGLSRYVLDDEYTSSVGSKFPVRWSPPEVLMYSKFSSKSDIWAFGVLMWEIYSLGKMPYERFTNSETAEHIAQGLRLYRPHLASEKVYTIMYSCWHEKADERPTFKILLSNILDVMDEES
UniProt P19784, whole entry, species assumed: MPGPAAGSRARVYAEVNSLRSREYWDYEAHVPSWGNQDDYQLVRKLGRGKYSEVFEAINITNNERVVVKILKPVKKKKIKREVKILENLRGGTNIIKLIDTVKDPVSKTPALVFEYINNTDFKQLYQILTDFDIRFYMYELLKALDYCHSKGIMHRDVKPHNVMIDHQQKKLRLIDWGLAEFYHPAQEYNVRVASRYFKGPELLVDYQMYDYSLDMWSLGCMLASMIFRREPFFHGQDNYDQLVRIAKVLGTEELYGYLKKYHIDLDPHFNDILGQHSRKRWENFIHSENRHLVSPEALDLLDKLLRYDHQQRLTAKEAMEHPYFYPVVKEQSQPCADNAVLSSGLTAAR
UniProt Q08881, whole entry, species assumed: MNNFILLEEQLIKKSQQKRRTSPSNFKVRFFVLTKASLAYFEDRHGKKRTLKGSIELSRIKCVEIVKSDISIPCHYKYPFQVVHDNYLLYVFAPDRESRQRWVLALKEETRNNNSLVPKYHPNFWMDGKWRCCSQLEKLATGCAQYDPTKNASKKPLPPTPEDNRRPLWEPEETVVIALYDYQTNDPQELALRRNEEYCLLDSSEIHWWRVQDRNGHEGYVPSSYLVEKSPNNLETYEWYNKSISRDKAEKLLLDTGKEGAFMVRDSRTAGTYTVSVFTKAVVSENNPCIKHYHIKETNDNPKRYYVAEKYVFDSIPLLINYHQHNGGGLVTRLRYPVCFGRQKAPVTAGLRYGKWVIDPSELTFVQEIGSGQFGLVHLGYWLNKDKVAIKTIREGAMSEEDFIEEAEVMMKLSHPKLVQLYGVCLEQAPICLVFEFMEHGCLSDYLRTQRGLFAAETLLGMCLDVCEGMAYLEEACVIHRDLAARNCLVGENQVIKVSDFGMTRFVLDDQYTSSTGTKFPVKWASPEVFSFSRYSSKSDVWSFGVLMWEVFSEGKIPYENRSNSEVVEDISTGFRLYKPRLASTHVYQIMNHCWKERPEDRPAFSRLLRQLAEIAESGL
UniProt P06239, whole entry, species assumed: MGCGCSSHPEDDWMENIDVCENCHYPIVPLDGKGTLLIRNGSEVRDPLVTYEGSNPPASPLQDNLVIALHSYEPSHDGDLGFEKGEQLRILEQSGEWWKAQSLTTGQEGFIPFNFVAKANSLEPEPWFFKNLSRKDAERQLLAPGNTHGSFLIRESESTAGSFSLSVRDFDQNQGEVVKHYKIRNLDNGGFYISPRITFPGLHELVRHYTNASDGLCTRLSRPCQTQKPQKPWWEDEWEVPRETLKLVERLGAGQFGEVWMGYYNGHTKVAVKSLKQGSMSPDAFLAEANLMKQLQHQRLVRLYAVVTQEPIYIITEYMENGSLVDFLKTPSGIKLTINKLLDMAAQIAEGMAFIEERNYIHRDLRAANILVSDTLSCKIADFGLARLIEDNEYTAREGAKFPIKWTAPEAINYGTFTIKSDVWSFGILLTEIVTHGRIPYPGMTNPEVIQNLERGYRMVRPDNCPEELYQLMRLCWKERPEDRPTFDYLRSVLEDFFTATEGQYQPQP
UniProt P07948, whole entry, species assumed: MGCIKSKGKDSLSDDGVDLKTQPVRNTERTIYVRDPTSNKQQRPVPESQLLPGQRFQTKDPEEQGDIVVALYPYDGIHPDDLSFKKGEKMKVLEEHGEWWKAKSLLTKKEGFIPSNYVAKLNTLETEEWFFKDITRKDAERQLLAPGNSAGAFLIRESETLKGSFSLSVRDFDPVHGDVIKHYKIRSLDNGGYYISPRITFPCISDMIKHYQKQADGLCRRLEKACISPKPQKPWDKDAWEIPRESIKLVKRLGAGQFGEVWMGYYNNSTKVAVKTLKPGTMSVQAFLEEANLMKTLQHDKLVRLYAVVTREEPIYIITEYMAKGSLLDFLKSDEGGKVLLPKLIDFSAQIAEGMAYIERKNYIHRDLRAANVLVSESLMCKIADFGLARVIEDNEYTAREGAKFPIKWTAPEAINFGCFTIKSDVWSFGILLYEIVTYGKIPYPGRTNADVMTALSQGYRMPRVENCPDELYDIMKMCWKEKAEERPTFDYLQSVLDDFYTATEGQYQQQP
UniProt P29597, whole entry, species assumed: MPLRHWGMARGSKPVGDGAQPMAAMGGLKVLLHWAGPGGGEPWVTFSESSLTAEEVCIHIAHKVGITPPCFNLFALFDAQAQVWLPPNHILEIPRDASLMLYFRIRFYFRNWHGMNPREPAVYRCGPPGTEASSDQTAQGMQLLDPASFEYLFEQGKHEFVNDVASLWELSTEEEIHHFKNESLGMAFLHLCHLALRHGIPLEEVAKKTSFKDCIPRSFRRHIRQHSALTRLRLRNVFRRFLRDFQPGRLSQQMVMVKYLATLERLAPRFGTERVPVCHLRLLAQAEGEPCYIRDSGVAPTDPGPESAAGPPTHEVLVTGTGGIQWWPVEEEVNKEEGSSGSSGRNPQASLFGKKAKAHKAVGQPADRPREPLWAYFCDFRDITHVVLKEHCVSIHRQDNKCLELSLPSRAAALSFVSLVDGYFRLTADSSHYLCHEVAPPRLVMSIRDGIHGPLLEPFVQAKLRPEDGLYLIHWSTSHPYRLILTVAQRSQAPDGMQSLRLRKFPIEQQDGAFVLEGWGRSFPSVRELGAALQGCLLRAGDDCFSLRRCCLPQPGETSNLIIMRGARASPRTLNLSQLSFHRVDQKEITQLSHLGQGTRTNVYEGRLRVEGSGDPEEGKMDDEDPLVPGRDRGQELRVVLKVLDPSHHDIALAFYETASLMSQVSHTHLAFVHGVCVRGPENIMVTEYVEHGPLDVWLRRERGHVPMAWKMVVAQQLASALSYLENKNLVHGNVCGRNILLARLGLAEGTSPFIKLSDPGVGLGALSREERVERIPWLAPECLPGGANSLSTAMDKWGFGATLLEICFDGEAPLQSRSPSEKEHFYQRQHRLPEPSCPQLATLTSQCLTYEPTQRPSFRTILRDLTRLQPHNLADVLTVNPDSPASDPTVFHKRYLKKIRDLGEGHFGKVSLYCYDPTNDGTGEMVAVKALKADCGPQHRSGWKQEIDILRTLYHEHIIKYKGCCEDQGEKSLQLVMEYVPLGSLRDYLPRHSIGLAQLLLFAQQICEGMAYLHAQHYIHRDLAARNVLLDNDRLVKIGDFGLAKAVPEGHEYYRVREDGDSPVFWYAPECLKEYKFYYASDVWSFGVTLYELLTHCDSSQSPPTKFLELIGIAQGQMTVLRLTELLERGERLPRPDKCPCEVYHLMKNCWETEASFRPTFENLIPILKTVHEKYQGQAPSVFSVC

What was measured:
Test in all cases: Caliper Kinase Assay
Format in all cases: biochemical
GSK3B = GSK3B (Homo sapiens (Human), UniProt P49841); conditions: ATP at Km, peptide 1.5 uM; read-out: LLE GSK3B (IC50)
Protocol: (§1) In addition, compounds of the present invention, such as particular compounds disclosed in the preceding examples, were evaluated for their effectiveness as inhibitors of kinase receptor activity.
(§2) The analyses were performed in U-bottom 384-well plates. The final assay volume was 30 μl prepared from 15 μl additions of enzyme and substrates (fluoresceinated peptide and ATP) and test compounds in assay buffer (20 mM HEPES pH 7.4, 10 mM MgCl2, 0.015% Brij35 and 4 mM DTT). The reaction was initiated by the combination of purified protein kinase with substrates and test compounds. The reaction was incubated at room temperature for 60 min. and terminated by adding 30 μl of 35 mM EDTA to each sample. The reaction mixture was analyzed on the Caliper LABCHIP® 3000 (Caliper, Hopkinton, Mass.) by electrophoretic separation of the fluorescent substrate and phosphorylated product. Inhibition data were calculated by comparison to no enzyme control reactions for 100% inhibition and vehicle-only reactions for 0% inhibition. The ATP was used at a final concentration equivalent to the Km and the peptide substrate concentration was 1.5 μM. […] Compounds were dissolved at 10 mM in dimethylsulfoxide (DMSO) and evaluated at eleven concentrations. IC50 values were derived by non-linear regression analysis.

IKKE = IKKE (Homo sapiens (Human), UniProt Q14164); conditions: ATP at Km, peptide 1.5 uM; read-out: LLE IKKE (IC50)
Protocol: as §1, §2

IRAK-4 = IRAK-4 (Homo sapiens (Human), UniProt Q9NWZ3); conditions: ATP at Km, peptide 1.5 uM; read-out: LLE IRAK-4 (IC50)
Protocol: as §1, §2

IRAK1 = IRAK1 (Homo sapiens (Human), UniProt P51617); conditions: ATP at Km, peptide 1.5 uM
Protocol: as §1, §2

TEC = TEC (Homo sapiens (Human), UniProt P42680); conditions: ATP at Km, peptide 1.5 uM; read-out: LLE_TEC (IC50)
BMX = BMX (Homo sapiens (Human), UniProt P51813); conditions: ATP at Km, peptide 1.5 uM; read-out: LLE_BMX (IC50)
BTK = BTK (Homo sapiens (Human), UniProt Q06187); conditions: ATP at Km, peptide 1.5 uM; read-out: LLE_BTK (IC50)
CDK2E = CDK2E (Homo sapiens (Human), UniProt P24941); conditions: ATP at Km, peptide 1.5 uM; read-out: LLE_CDK2E (IC50)
CK2A2 = CK2A2 (Homo sapiens (Human), UniProt P19784); conditions: ATP at Km, peptide 1.5 uM; read-out: LLE_CK2A2 (IC50)
Description: IC50 values were derived by non-linear regression analysis.

ITK = ITK (Homo sapiens (Human), UniProt Q08881); conditions: ATP at Km, peptide 1.5 uM; read-out: LLE_ITK (IC50)
JAK3 = JAK3 (Homo sapiens (Human), UniProt P52333); conditions: ATP at Km, peptide 1.5 uM; read-out: LLE_JAK3 (IC50)
Lck = Lck (Homo sapiens (Human), UniProt P06239); conditions: ATP at Km, peptide 1.5 uM; read-out: LLE_Lck (IC50)
LYNA = LYNA (Homo sapiens (Human), UniProt P07948); conditions: ATP at Km, peptide 1.5 uM; read-out: LLE_LYNA (IC50)
TYK2 = TYK2 (Homo sapiens (Human), UniProt P29597); conditions: ATP at Km, peptide 1.5 uM; read-out: LLE_TYK2_887 (IC50)

| Compound | IC50 (GSK3B) | IC50 (IKKE) | IC50 (IRAK-4) | IC50 (IRAK1; first section of Table 4, read-out: LLE IRAK1 (IC50)) | IC50 (IRAK1; second section of Table 4, read-out: LLE_IRAK1 (IC50)) | IC50 (TEC) | IC50 (BMX) | IC50 (BTK) | IC50 (CDK2E) | IC50 (CK2A2) | IC50 (ITK) | IC50 (JAK3) | IC50 (Lck) | IC50 (LYNA) | IC50 (TYK2) |
| --- | --- | --- | --- | --- | --- | --- | --- | --- | --- | --- | --- | --- | --- | --- | --- |
| c1ccc(-c2cccc3nc(-c4cncnc4)nc(NCc4ccccn4)c23)cc1 [Example 1, 5-Phenyl-N-(pyridin-2-ylmethyl)-2-(pyrimidin-5-yl)quinazolin-4-amine] | 50 µM | 50 µM | 50 µM | 50 µM | 50 µM | 50 µM |  |  |  |  |  |  |  |  |  |
| NS(=O)(=O)c1cncc(-c2nc(NCc3ccccn3)c3c(-c4ccccc4)cccc3n2)c1 [Example 7, 5-(5-Phenyl-4-(pyridin-2-ylmethylamino)quinazolin-2-yl)pyridine-3-sulfonamide] | ≥ 50 µM |  | ≥ 50 µM |  |  |  | ≥ 50 µM | ≥ 50 µM | ≥ 50 µM | 50 µM | ≥ 50 µM | ≥ 50 µM | ≥ 50 µM | 50 µM | 50 µM |
